“And” between values parts separate entries of the source, which are not always exact repeats. Identical values can stand only once.

The text below walks through data of patent US8455439B2, “Antidotes for factor Xa inhibitors and methods of using the same in combination with blood coagulating agents” (Portola Pharmaceuticals, Inc., priority 2008, dated 2013).

This data set relates to male C57Bl/6 mice. As to the kind of experiment: In vivo mouse model, PK-PD of betrixaban with antidote. The conditions noted are these: for % Correction: INR. As to the method: 15 mg/kg was used for antidote treated group. A single intravenous (IV) injection of antidote (300 ug/200 μL) or vehicle (normal saline, 200 μL) was administered 5 minutes prior to the 1.5 hr. time point.
Blood samples (0.5 mL) were obtained in 50 μL trisodium citrate. Whole blood INR was measured using Hemochron Jr. cartridges (International Technidyne Corporation) per the manufacturer's instructions.
15 mg/kg was used for antidote (300 pg/200 μL) treated group.
Vehicle (control—1) or r-Antidote (1 injection) was administered 5 min prior to the 1 hr. time point. […] Mouse blood samples were taken at 2 hr. for vehicle (control—2) and r-Antidote (2 injections) treated mice.

B1: r-Antidote: fXa derivative lacking amino acid residues 6-39 of SEQ ID NO. 3, S379A, expressed in CHO cells, linker removed (SEQ ID NO. 13) (protein)
chain: ANSFLFWNKYKDGDQCETSPCQNQGKCKDGLGEYTCTCLEGFEGKNCELFTRKLCSLDNGDCDQFCHEEQNSVVCSCARGYTLADNGKACIPTGPYPCGKQTLERIVGGQECKDGECPWQALLINEENEGFCGGTILSEFYILTAAHCLYQAKRFKVRVGDRNTEQEEGGEAVHEVEVVIKHNRFTKETYDFDIAVLRLKTPITFRMNVAPACLPERDWAESTLMTQKTGIVSGFGRTHEKGRQSTRLKMLEVPYVDRNSCKLSSSFIITQNMFCAGYDTKQEDACQGDAGGPHVTRFKDTYFVTGIVSWGEGCARKGKYGIYTKVTAFLKWIDRSMKTRGLPKAKSHAPEVITSSPLK
B1: where the note is “Mean, r-Antidote treated mice”, the “% Correction” value was 77.3% and the “Measured INR” value is listed as 1.3. Further, under “individual r-Antidote treated mice”, the “% Correction” value is 50.0% and 94.1% and 80.0% and 93.6%. In addition, the “Betrixaban” value (Mean of 4 r-Antidote treated mice) worked out at 381 ng/mL. For the same molecule, the “further increase of betrixaban level in plasma vs single injection” value (second IV injection r-Antidote 312 ug, 2 hr, FIG. 22A) was “less than 2 fold”. Also, for the setting “single IV injection r-Antidote 312 ug, betrixaban 15 mg/kg PO, 1 hr, FIG. 22A”, the “increase of betrixaban level in plasma vs vehicle control” value is “more than 8 fold”. For the same molecule, where the note is “single injection r-Antidote 300 μg IV after betrixaban 15 mg/kg PO, mice”, the “correction of ex vivo whole blood INR / reduction of functional betrixaban” value was above 50%.
